Results: PubChem BioAssay AID1851 (National Center for Advancing Translational Sciences (NCATS), 2009)
This list holds what a sample rich in hits left over. Inconclusive results are not listed. Activity calls are given as the source filed them. Calls follow the shape of the dose curve; as a rule, active = well fitted curve in the direction sought with a large enough effect; inconclusive = small, poorly fitted or top-dose-only effect, or effect the other way; inactive = no such curve, though single readings can be large or run the other way.

Sequences of proteins named here, by UniProt entry; tags and fusion partners are left off.
UniProt P08684, whole entry, looked up: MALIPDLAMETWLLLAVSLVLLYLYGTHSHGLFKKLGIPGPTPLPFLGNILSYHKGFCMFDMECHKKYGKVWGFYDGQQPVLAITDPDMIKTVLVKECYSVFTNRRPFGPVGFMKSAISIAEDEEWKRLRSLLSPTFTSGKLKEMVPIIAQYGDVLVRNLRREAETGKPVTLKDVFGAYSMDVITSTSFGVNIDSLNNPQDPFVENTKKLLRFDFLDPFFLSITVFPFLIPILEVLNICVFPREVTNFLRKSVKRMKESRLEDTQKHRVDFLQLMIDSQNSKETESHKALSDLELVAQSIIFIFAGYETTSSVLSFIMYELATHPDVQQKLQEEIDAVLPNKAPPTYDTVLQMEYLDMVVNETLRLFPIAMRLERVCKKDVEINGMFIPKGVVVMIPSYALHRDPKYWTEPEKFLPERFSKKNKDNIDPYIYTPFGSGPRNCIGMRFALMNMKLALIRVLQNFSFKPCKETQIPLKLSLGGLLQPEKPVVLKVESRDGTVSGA

biological target: Cytochrome P450 3A4 (Homo sapiens) (UniProt P08684); experiment: Cytochrome panel assay with activity outcomes; conditions: recombinant CYP, pro-luciferin dealkylation, luminescence, p450-cyp3a4; at 57.1 µM (top of the series)
% is scaled to controls: 0 for no effect and ±100 for the full control effect.

activity, negative = inhibition, inactive:
N#Cc1ccc(CN2CCC3(CC2)CCN(C(=O)c2csnn2)CC3)cc1 -11.8%
CC(C)NC(=O)N1CC[C@@]2(CCCN(C(=O)c3cccc(F)c3)C2)C1 -14.3%
N#CCCn1c(=O)c(-c2ccc(Cl)cc2)nc2cnc(OCc3ccccc3)nc21 22.1%
Cn1c(=O)c(-c2cccs2)nc2cnc(OCc3ccccc3)nc21 -7.14%
